# Results: PubChem BioAssay AID504734 (The Scripps Research Institute Molecular Screening Center, 2011)
# Chains of the proteins cited; added tags and fusions are not shown.
# UniProt Q9NR96, whole entry: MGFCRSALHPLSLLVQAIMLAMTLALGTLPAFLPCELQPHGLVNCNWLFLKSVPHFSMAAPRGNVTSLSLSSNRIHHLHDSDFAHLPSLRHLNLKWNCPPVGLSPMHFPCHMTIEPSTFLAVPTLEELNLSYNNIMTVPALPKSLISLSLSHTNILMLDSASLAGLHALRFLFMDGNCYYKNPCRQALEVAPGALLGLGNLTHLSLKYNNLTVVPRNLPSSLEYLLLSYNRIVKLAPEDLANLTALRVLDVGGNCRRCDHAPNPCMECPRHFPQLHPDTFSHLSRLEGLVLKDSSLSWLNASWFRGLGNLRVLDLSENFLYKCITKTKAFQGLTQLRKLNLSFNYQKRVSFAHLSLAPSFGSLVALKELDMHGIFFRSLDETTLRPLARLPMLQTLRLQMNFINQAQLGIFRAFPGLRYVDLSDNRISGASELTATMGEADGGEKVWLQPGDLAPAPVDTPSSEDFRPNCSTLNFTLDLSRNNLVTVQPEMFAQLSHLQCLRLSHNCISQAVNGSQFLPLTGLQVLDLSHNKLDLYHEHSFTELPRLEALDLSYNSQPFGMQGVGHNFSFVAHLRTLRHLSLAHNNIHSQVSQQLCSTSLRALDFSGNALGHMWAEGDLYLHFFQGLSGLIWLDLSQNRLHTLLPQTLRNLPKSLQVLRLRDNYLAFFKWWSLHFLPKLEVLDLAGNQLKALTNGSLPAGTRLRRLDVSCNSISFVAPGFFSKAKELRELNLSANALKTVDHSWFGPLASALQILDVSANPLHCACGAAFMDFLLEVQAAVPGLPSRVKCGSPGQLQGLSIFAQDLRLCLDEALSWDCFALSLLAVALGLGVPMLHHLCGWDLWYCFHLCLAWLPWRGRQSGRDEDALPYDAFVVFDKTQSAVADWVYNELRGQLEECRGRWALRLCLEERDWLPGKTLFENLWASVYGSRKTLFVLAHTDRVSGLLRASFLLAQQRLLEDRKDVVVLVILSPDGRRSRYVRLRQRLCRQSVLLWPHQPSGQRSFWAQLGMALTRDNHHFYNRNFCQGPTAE
# Only a part is listed here, and it is no random draw. Active and inactive are the calls of the source.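 How the source made its calls: active means inhibition above the mean over all tested compounds plus 3 SD (cut at about 21% in these data); inactive means the rest.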
# Target: Toll-like receptor 9 (Homo sapiens) + Myeloid differentiation primary response protein MyD88 (Homo sapiens) (UniProt Q9NR96+Q99836)
# Experiment: disruptors of TLR9 binding to MyD88 – cell-based, CHO, BLA complementation, fluorescence, primary screen (AID 504734);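 further: 0% = DMSO only wells and 100% = clavulanate BLA inhibitor control wells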
# Settings: CHO BLA complementation TLR9-MyD88, CCF4 FRET ratio; at 4.98 µM; hits give high values
row,SMILES,inhibition
1,CCC(=O)N(c1ccccc1)C1(COC)CCN(CCc2cccs2)CC1,inactive: -4.75%
2,CCC(=O)N(c1ccccc1)C1(COC)CCN(CCn2nnn(CC)c2=O)CC1,inactive: 10.2%
